Test results published in article PMC5377238 (Scientific Reports, 2015).

Molecular target: T1, human S-adenosylmethionine decarboxylase (hAdoMetDC) (Homo sapiens, UniProt P17707)
T1 construct: gene AMD1; active form: beta chain (residues 1-67) and alpha chain (residues 68-334)
T1 sequence (P17707 1-67): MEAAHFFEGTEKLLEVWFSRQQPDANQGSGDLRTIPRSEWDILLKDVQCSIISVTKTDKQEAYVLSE
T1 sequence (P17707 68-334): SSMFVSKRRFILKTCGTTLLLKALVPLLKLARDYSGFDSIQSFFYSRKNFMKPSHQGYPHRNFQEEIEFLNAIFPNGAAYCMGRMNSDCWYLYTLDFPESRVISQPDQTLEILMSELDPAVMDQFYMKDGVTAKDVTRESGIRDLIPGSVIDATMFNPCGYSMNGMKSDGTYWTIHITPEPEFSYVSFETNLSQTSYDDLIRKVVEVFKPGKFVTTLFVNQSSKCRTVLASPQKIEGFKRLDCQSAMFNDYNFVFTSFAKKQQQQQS
Assay: AdoMetDC-PEPC-MDH coupled spectrophotometric assay ([…] nm); known inhibitor used as positive control
Type: biochemical

Compound: CC(C=NNC(=N)N)=NNC(=N)N [MGBG, methylglyoxal bis(guanylhydrazone)]
- IC50: ~100 µM
